This passage reports inhibition of corepressor binding results from PubChem BioAssay AID602229 (The Scripps Research Institute Molecular Screening Center, 2012).

By UniProt entry, the sequences of proteins in these tests, tags left out. Where a name states a change or a piece, a line headed by the entry shows the natural chain unless it says otherwise.
UniProt Q9Y5X4: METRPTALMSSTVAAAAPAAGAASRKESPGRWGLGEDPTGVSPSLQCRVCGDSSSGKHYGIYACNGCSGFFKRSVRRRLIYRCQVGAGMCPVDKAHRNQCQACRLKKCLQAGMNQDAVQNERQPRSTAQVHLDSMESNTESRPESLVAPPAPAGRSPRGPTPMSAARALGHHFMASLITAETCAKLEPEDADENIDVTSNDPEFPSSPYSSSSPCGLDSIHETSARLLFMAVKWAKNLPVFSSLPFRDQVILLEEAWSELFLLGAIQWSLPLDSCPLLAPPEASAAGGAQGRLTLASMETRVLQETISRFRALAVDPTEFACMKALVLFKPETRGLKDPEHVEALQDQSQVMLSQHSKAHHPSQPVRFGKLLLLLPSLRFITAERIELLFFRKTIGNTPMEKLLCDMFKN

Only a part is listed here, and it is no random draw. Active and inactive are the calls of the source.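 Rule for the calls: active = inhibition above the mean of all tested compounds plus 3 SD (cut at about 70% in these data); inactive = the rest.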

The experiment deals with Photoreceptor-specific nuclear receptor (Homo sapiens) (UniProt Q9Y5X4). In words: NCOR release from NR2E3 in cells – cell-based, luminescence, CHO-S, Gal4-NCOR/VP16-NR2E3, primary screen (AID 602229).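 Note: 0% = DMSO with NR2E3 transfected cells and 100% = cells lacking NR2E3 construct; higher means lower luciferase signal from less NR2E3 corepressor binding.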 The conditions noted are these: CHO-S Gal4-NCOR/VP16-NR2E3 two-hybrid, luciferase; at 3.98 µM; active compounds read high.
Consider `Nc1ccccc1[As](=O)(O)c1ccccc1`, for which the inhibition of corepressor binding was inactive: 4.33%.
In the case of `O=C(O)COc1ccc([As](=O)(O)O)cc1[N+](=O)[O-]` it was inactive: 2.94%.
For `O=P(Nc1nccs1)(Oc1ccccc1)Oc1ccccc1`, the inhibition of corepressor binding was inactive: 0.78%.
In the case of `O=P(Nc1nccs1)(c1ccccc1)c1nc2ccccc2s1` (stereo not given) it was inactive: 31%; in that of `CCOP1(=S)c2c(C)nn(CCC#N)c2N=C(c2ccccc2F)N1C` (stereo not given), inactive: -18.5%.
In the case of `CS(=O)(=O)c1cc([N+](=O)[O-])c2no[n+]([O-])c2c1`, the inhibition of corepressor binding is inactive: -0.32%.
Take `CN(C(=O)Cc1ccccc1)[C@@H]1CC[C@]2(CCCO2)C[C@H]1N1CCCC1`: the inhibition of corepressor binding is inactive: -43.6%.
In the case of `CCOP1(=S)c2c(C)nn(CCC#N)c2N=C(c2ccc(F)cc2)N1C` (stereo not given) it was inactive: 2.56%; in that of `N#CCCN(C(=O)COC(=O)C(O)(c1ccccc1)c1ccccc1)c1ccc(F)cc1`, inactive: 6.06%.
In the case of `CN(C(=O)Cc1ccc(Cl)c(Cl)c1)[C@H]1CC[C@@]2(CCCO2)C[C@@H]1N1CCCC1` it was inactive: -2.36%.
As for `O=[N+]([O-])c1ccc2c(c1)nnn2O`, the inhibition of corepressor binding is inactive: 23.8%.
As to `CN(C)C(=O)c1cc([N+](=O)[O-])cc2c1-c1c(cc([N+](=O)[O-])cc1[N+](=O)[O-])C2=O`, the inhibition of corepressor binding was inactive: 17.6%.
For `NC(=O)Nc1ccc([As](=O)(O)O)cc1`, the inhibition of corepressor binding was inactive: -4.74%.
In the case of `Cc1cccc(OCC(=O)OC2CN3CCC2CC3)c1` (stereo not given) it was inactive: -15.5%; in that of `O=[As](O)(c1cccc(O)c1)c1cccc(O)c1`, inactive: 13.8%.
In the case of `O=C(OC1CN2CCC1CC2)c1ccc(Cl)cc1` (stereo not given) it was inactive: -21%; in that of `CS(=O)(=O)c1ccc(Cl)c(NC(=O)COC(=O)C(O)(c2ccccc2)c2ccccc2)c1`, inactive: -21.8%.
In the case of `O=[As](O)(O)c1cccnc1` it was inactive: -2.76%; in that of `COc1cc(C(=O)NCC2(N3CCOCC3)CCCCC2)cc(Cl)c1OC(C)C`, inactive: -39.4%.
With `CCOP(=O)(Nc1cccc2ccccc12)OCC`, the inhibition of corepressor binding was inactive: 1.46%.
Consider `COc1cc(C2NCCC3(OCCO3)C2(C)C)cc(OC)c1OC` (stereo not given), for which the inhibition of corepressor binding was inactive: -1.56%.
Turning to `Nc1cccc2c([As](=O)(O)O)cccc12`, the inhibition of corepressor binding is inactive: 6.07%.
On to `Cc1ccc(NCCc2c([N+](=O)[O-])cc([N+](=O)[O-])cc2[N+](=O)[O-])cc1`, for which the inhibition of corepressor binding was inactive: -3.76%.
In the case of `CCCOP(=S)(Nc1nc(N)cc(=O)[nH]1)OCCC` it was inactive: -9.22%; in that of `CC(C)(C)C(=O)NC(Sc1ncccn1)C(Cl)(Cl)Cl` (stereo not given), inactive: -19.3%; in that of `O=P1(N(CCCl)CCCl)NCCC(C(F)(F)F)O1` (stereo not given), inactive: -20%.
For `Clc1n[nH]nc1-c1nn[nH][15n]1`, the inhibition of corepressor binding is inactive: 23.8%.
In the case of `CCOP(=O)(NC(=NC(C)c1ccccc1)NC(C)c1ccccc1)OCC` (stereo not given) it was inactive: -7.2%.
In the case of `O=P1(Nc2ccccn2)COc2ccccc2OC1` it was inactive: -0.13%.
Consider `CCC1=CC2Cc3nc4ccc(Cl)cc4c(N)c3C(C1)C2` (stereo not given), for which the inhibition of corepressor binding is inactive: 1.47%.
Consider `CN(CCCl)Cc1cc(Cl)c(NC2=NCCN2)c(Cl)c1`, for which the inhibition of corepressor binding was inactive: 3.16%.
In the case of `CC(C)/C=N\N=C(\N)N[N+](=O)[O-]` it was inactive: 0.73%; in that of `CN(C(=O)Cc1ccc(Cl)c(Cl)c1)[C@@H]1CCCC[C@H]1N1CCCC1`, inactive: 18.3%; in that of `CC1(CBr)Cn2c(nc3ccccc3c2=O)S1` (stereo not given), inactive: -8.28%.
In the case of `COc1ccccc1CNC(=O)COC(=O)C(O)(c1ccccc1)c1ccccc1` it was inactive: 10%; in that of `CN(C)C1(CNC(=O)c2ccc(S(C)(=O)=O)cc2)CCCCC1`, inactive: 7.95%; in that of `CCCC1OP(=O)(Nc2ccccc2)OCC1CC` (stereo not given), inactive: 6.55%.
In the case of `O=C(/C=C/c1ccccc1)OC1CN2CCC1CC2` (stereo not given) it was inactive: 12.9%; in that of `CC1CCC(C(C)C)C(OP(=O)(Nc2ccccn2)c2ccccc2)C1` (stereo not given), inactive: 38.7%; in that of `Cc1ccc(C(=O)OC2CN3CCC2CC3)cc1` (stereo not given), inactive: -36.7%.
Consider `Cc1nn(-c2ccccc2)c2c1P(=O)(N1CCOCC1)N(C)C(c1ccccc1)=N2` (stereo not given), for which the inhibition of corepressor binding is inactive: -28%.
In the case of `Nc1cccc([As](=O)(O)c2ccccc2)c1` it was inactive: -18.8%.
`O=[As](O)(c1cccs1)c1cccs1`: the inhibition of corepressor binding is inactive: -15.1%.
Turning to `Cc1ccc(OCC(=O)OC2CN3CCC2CC3)cc1` (stereo not given), the inhibition of corepressor binding was inactive: -26%.
In the case of `O=P1(Nc2ccc(Br)cn2)COc2ccccc2OC1` it was inactive: -8.76%.
In the case of `NS(=O)(=O)c1cccc(NC(=O)COC(=O)C(O)(c2ccccc2)c2ccccc2)c1` it was inactive: -5.43%; in that of `Cc1ccc(S(=O)(=O)N(CCCN)CCCc2c(C)nc(N)[nH]c2=O)cc1`, inactive: -0.29%; in that of `O=P1(Nc2ncccn2)COc2ccccc2OC1`, inactive: -3.94%.
For `COP(=O)(OC)N1CC1c1ccccc1` (stereo not given), the inhibition of corepressor binding is inactive: 7.24%.
Consider `Cc1cc(SC(NC(=O)c2ccccc2)C(Cl)(Cl)Cl)nc(C(C)C)n1` (stereo not given), for which the inhibition of corepressor binding was inactive: -3.01%.
With `CCCCOc1ccc(C(=O)NCC2(N3CCCCC3)CCCCC2)cc1OC`, the inhibition of corepressor binding was inactive: -9.13%.
As for `CCOC(=O)Nc1ccc([As](=O)(O)O)c(O)c1`, the inhibition of corepressor binding is inactive: -19.5%.
Turning to `O=C(O)C(O)c1ccc(N(CCCl)CCCl)cc1` (stereo not given), the inhibition of corepressor binding was inactive: -0.32%.
In the case of `CC1CCNP(=O)(N(CCCl)CCCl)O1` (stereo not given) it was inactive: 10.8%; in that of `O=P(Nc1ccccn1)(c1cccc2ccccc12)c1cccc2ccccc12`, inactive: -2.53%; in that of `Cc1cc(SC(NC=O)C(Cl)(Cl)Cl)ncn1` (stereo not given), inactive: 18.3%.
Consider `O=[N+]([O-])c1ccc(Nc2ccc(Oc3ccc([N+](=O)[O-])cc3[N+](=O)[O-])cc2)c([N+](=O)[O-])c1`, for which the inhibition of corepressor binding was inactive: -14.8%.
For `CCOC(=O)Nc1cccc([As](=O)(O)O)c1`, the inhibition of corepressor binding was inactive: 27.4%.
In the case of `O=C(O)C(=O)c1ccc(N(CCCl)CCCl)cc1`, the inhibition of corepressor binding was inactive: -26.7%.
Turning to `O=C(Nc1ccncc1[N+](=O)[O-])c1ccc([N+](=O)[O-])cc1[N+](=O)[O-]`, the inhibition of corepressor binding was inactive: -32%.
With `O=C(COc1ccccc1)OC1CN2CCC1CC2` (stereo not given), the inhibition of corepressor binding is inactive: 0.04%.
For the molecule `COC(=O)C1(C)COP(=O)(N2CCCC2)OC1` (stereo not given), the inhibition of corepressor binding is inactive: -2.74%.
`COP1(=S)c2c(C)nn(CCC#N)c2N=C(c2ccc(F)cc2)N1C` (stereo not given): the inhibition of corepressor binding is inactive: -7.54%.
In the case of `CCC(C)N(CC(C)C)C(=S)SC(NC(C)=O)C(Cl)(Cl)Cl` (stereo not given) it was inactive: 14.7%; in that of `CSc1ccc(Nc2c([N+](=O)[O-])cc([N+](=O)[O-])cc2[N+](=O)[O-])cc1`, inactive: -2.99%; in that of `O=C(OC1CN2CCC1CC2)c1cccc([N+](=O)[O-])c1` (stereo not given), inactive: -15.6%.
Regarding `CCOC(=O)c1ccc(NC(=O)C(C)(CCl)SC)cc1` (stereo not given), the inhibition of corepressor binding is inactive: -39.2%.
In the case of `O=P1(N(CCCl)CCCl)OCCCN1CCCl` (stereo not given) it was inactive: 12.8%; in that of `O=P1(N(CCCl)CCCl)Nc2ccccc2N1`, inactive: -157%; in that of `COc1cc(I)ccc1[As](=O)(O)O`, inactive: -13.5%.
In the case of `COc1ccc2nc(NP(=O)(c3ccccc3)c3ccccc3)sc2c1`, the inhibition of corepressor binding is inactive: -23.5%.
As to `Cc1c2c(nc3ccccc13)SC(C(Cl)Cl)C2` (stereo not given), the inhibition of corepressor binding was inactive: -34.2%.
Consider `Cc1cc(=O)[nH]c(N[N+](=O)[O-])n1`, for which the inhibition of corepressor binding is inactive: 14.5%.
On to `O=C(OC1CN2CCC1CC2)C12CC3CC(CC(C3)C1)C2` (stereo not given), for which the inhibition of corepressor binding was inactive: -10.5%.
In the case of `O=[N+]([O-])c1cc(Oc2ccc([N+](=O)[O-])cc2C(F)(F)F)cc([N+](=O)[O-])c1`, the inhibition of corepressor binding was inactive: -1.89%.
Consider `COc1ccc(N/C(=N/P(=O)(N2CCOCC2)N2CCOCC2)N2CCOCC2)cc1`, for which the inhibition of corepressor binding was inactive: -18.9%.
Take `[N-]=[N+]=NC1CCCCC1NC(=O)c1cc([N+](=O)[O-])cc([N+](=O)[O-])c1` (stereo not given): the inhibition of corepressor binding was inactive: -0.43%.
Regarding `Cc1ccc(OP(=O)(Nc2ccc([N+](=O)[O-])cn2)Oc2ccc(C)cc2)cc1`, the inhibition of corepressor binding was inactive: -14%.
Consider `Cc1ccc2nc3c(c(C)c2c1)CC(C(Cl)Cl)S3` (stereo not given), for which the inhibition of corepressor binding is inactive: -36%.
With `O=[N+]([O-])c1ccc(-c2cc([N+](=O)[O-])c(O)c([N+](=O)[O-])c2)cc1`, the inhibition of corepressor binding was inactive: -37.6%.
Turning to `COc1cc(C(=O)NCC2(N3CCOCC3)CCCCC2)ccc1OCC(C)C`, the inhibition of corepressor binding is inactive: 22.2%.
For the molecule `C[As](=O)(O)c1cccc(C(=O)O)c1`, the inhibition of corepressor binding is inactive: -30.1%.
In the case of `O=[As](O)(c1ccc(O)cc1)c1ccccc1O` it was inactive: -18.9%; in that of `O=[N+]([O-])c1cc([N+](=O)[O-])c(-c2ccn[nH]2)s1`, inactive: 18.5%.
As to `CC(C)NC(=O)NP(=O)(Oc1ccccc1)Oc1ccccc1`, the inhibition of corepressor binding was inactive: 20.8%.
As for `O=C(OC1CN2CCC1CC2)c1cccc2[nH]cnc12` (stereo not given), the inhibition of corepressor binding was inactive: 12.1%.
In the case of `CCN(CC)C(=S)SC(NC=O)C(Cl)(Cl)Cl` (stereo not given) it was inactive: -21.3%; in that of `ClCCSc1nnc(-c2cccnc2)o1`, inactive: -29.9%.
For the molecule `COC(=O)C1(C)COP(=O)(N2CCCCCC2)OC1` (stereo not given), the inhibition of corepressor binding is inactive: 2.3%.
For the molecule `CC(C)c1ccc(OP(=O)(Nc2ccccn2)Oc2ccccc2F)cc1` (stereo not given), the inhibition of corepressor binding was inactive: 9.62%.
On to `Cc1ccc(NP(=O)(Oc2ccccc2F)Oc2ccccc2F)nc1`, for which the inhibition of corepressor binding was inactive: -39.1%.
As for `CN(C(=O)Cc1ccc(Cl)c(Cl)c1)[C@H]1CCCC[C@@H]1N1CCCC1`, the inhibition of corepressor binding was inactive: 2.8%.
As to `Cc1cc(SC(NC(=O)c2ccc(F)cc2)C(Cl)(Cl)Cl)ncn1` (stereo not given), the inhibition of corepressor binding is inactive: -9.47%.
In the case of `CCOP(=O)(Nc1ccccc1)OCC` it was inactive: 0.29%.
With `O=P(Nc1nc2ccc(Cl)cc2s1)(c1ccccc1)c1ccccc1`, the inhibition of corepressor binding was inactive: -4.53%.
As to `CN(C)P(=O)(N(C)C)n1c(Nc2ccccc2)nnc1-c1ccccc1`, the inhibition of corepressor binding is inactive: -16.1%.
`CCCC1OP(N)(=O)OCC1CC` (stereo not given): the inhibition of corepressor binding was inactive: -5.1%.
Consider `CC(=O)Nc1ccc([As](=O)(O)O)cc1`, for which the inhibition of corepressor binding was inactive: -3.23%.
For `O=C(O)c1ccccc1[As](=O)(O)O`, the inhibition of corepressor binding was inactive: -14%.
In the case of `Nc1cccc2ccc([As](=O)(O)O)cc12` it was inactive: -21.4%.
